Laboratory results reported in paper PMC11012005 (International Journal of Molecular Sciences, 2024).

Chains of the proteins cited; added tags and fusions are not shown.
UniProt P35372, whole entry: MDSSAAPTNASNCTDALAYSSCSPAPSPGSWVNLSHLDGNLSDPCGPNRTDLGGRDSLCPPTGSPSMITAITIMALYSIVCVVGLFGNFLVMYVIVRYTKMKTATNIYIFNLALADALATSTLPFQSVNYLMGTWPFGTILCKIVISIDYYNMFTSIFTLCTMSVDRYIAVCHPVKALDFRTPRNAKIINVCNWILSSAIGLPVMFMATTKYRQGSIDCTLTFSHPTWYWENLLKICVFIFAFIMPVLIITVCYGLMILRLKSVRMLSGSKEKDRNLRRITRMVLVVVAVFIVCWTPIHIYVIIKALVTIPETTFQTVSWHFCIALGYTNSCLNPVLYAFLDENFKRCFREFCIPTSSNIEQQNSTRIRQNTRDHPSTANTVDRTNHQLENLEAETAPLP

Target: T1, human MOR (Homo sapiens, UniProt P35372)
T1 construct: expressed in transfected cells; host or cells: CHO cells (CHO-hMOR), gift of Dr. Lawrence Toll, SRI International
Test: Radioligand competition binding, [3H]DAMGO, CHO-hMOR cell membranes
Settings: read-out: Opioid Receptor Binding (Ki, nM) MOR

C[C@@H](NC(=O)[C@@H](N)Cc1ccc(O)cc1)C(=O)N[C@@H](Cc1ccccc1)C(=O)NCC(=O)N[C@@H](Cc1ccc(O)cc1)C(=O)N1CCC[C@H]1C(=O)N[C@@H](CO)C(N)=O [Dermorphin, reference compound]
Ki: 1.89 ± 0.2 nM
